Test results published in PubChem BioAssay (NCATS).
The list shows a part of the results, in another mix than the full data. Inconclusive results are not listed. Calls of active or inactive are those of the source. Unless noted, the call rests on the fitted dose curve; in most records, active means well fitted curve in the direction sought with a large enough effect; inconclusive means small, poorly fitted or top-dose-only effect, or another doubt; inactive means no such curve, though single readings can be large; an effect the other way counts as inactive or inconclusive.

Sequences of proteins named here, by UniProt entry; tags and fusion partners are left off. A change or cut given only in a name is not applied to a line headed by its entry.
UniProt P02791: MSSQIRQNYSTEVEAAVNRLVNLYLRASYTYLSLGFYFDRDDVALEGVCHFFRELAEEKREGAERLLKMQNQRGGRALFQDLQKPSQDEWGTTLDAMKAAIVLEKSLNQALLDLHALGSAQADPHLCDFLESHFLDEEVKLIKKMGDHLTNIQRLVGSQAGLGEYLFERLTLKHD
UniProt P46063: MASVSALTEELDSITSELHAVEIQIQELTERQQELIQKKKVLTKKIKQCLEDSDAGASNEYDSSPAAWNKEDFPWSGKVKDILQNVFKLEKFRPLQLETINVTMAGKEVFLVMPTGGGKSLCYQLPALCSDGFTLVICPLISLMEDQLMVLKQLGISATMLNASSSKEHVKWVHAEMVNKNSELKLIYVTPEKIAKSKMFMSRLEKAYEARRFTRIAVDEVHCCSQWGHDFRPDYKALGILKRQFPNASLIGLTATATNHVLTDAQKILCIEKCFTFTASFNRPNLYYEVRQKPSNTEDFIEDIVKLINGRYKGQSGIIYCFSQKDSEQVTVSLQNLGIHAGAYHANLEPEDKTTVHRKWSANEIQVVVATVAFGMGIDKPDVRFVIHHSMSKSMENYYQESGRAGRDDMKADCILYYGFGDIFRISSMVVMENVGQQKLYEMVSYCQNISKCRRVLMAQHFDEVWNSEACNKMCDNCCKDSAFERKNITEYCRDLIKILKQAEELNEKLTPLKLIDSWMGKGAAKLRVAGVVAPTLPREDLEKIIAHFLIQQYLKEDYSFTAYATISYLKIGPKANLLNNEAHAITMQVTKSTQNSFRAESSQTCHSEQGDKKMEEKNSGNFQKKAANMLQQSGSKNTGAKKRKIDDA
UniProt O75604: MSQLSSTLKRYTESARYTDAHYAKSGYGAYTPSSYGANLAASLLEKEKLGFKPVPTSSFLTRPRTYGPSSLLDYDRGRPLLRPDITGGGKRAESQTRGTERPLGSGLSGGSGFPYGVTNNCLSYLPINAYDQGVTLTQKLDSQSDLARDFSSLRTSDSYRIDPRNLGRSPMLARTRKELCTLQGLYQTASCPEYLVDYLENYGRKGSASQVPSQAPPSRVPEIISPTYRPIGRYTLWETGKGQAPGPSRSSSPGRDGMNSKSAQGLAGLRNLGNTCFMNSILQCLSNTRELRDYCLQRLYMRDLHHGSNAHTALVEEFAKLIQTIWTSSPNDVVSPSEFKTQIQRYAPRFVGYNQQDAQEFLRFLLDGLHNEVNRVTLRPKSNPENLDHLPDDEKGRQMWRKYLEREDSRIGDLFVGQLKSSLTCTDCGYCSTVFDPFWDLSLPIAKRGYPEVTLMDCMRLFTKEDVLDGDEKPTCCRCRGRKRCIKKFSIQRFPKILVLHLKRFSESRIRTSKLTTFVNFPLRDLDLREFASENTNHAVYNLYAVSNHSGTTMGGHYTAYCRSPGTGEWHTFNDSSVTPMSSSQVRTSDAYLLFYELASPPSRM
UniProt O89049, whole entry, looked up: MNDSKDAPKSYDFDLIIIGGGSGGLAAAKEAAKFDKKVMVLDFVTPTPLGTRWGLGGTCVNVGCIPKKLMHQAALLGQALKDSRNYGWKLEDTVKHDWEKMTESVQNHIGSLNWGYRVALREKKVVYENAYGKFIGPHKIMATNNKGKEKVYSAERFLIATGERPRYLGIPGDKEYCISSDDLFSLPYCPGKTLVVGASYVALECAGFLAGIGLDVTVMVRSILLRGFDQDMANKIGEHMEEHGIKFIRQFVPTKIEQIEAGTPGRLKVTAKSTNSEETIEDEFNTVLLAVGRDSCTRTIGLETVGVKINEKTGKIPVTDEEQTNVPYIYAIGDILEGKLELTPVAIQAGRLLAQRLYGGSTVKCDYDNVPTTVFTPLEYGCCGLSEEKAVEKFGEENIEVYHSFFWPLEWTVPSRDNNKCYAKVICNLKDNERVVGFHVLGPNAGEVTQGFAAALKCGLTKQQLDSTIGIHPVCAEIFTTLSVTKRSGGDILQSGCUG
UniProt P39748, whole entry, looked up: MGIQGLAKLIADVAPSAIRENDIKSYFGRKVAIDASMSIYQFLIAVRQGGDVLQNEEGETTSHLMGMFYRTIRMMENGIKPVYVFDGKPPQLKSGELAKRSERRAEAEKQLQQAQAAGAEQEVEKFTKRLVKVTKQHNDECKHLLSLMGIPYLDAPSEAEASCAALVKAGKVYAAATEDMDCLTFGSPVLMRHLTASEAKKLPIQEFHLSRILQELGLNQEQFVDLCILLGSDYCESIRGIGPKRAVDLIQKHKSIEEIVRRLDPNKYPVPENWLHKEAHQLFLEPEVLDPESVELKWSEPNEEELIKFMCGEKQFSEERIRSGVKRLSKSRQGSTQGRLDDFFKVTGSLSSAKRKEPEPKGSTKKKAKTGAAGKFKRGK
UniProt P83916, whole entry, looked up: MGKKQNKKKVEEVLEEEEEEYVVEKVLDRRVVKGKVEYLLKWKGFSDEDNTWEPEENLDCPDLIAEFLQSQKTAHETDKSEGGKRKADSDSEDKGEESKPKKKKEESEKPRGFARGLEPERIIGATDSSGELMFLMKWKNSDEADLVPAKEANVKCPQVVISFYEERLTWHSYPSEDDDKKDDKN
UniProt Q6LX38: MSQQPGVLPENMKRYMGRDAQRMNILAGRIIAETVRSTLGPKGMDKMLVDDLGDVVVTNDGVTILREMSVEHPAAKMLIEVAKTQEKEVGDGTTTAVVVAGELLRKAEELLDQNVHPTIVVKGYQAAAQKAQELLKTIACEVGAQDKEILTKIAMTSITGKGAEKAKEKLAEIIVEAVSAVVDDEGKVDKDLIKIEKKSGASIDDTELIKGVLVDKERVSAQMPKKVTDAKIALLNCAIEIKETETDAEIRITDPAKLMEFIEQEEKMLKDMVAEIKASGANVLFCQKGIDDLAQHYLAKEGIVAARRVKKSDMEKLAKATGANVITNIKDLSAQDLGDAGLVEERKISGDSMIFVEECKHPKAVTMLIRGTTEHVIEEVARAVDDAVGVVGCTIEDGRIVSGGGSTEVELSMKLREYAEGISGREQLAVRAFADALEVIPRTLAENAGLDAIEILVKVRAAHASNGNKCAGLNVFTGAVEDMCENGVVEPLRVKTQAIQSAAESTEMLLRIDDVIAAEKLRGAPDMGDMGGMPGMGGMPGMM
UniProt P21728, whole entry, looked up: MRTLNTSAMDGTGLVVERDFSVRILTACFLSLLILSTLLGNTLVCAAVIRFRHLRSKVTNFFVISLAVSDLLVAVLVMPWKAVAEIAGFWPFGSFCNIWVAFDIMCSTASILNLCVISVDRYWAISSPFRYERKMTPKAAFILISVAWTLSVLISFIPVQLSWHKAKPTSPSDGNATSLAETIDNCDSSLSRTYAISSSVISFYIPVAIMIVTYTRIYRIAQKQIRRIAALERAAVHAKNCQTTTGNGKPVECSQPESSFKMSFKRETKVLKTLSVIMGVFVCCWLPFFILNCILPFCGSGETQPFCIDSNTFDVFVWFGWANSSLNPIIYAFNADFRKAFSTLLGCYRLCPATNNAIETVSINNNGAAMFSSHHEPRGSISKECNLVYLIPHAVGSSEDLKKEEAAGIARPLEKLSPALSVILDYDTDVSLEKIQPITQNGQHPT
UniProt Q96QE3: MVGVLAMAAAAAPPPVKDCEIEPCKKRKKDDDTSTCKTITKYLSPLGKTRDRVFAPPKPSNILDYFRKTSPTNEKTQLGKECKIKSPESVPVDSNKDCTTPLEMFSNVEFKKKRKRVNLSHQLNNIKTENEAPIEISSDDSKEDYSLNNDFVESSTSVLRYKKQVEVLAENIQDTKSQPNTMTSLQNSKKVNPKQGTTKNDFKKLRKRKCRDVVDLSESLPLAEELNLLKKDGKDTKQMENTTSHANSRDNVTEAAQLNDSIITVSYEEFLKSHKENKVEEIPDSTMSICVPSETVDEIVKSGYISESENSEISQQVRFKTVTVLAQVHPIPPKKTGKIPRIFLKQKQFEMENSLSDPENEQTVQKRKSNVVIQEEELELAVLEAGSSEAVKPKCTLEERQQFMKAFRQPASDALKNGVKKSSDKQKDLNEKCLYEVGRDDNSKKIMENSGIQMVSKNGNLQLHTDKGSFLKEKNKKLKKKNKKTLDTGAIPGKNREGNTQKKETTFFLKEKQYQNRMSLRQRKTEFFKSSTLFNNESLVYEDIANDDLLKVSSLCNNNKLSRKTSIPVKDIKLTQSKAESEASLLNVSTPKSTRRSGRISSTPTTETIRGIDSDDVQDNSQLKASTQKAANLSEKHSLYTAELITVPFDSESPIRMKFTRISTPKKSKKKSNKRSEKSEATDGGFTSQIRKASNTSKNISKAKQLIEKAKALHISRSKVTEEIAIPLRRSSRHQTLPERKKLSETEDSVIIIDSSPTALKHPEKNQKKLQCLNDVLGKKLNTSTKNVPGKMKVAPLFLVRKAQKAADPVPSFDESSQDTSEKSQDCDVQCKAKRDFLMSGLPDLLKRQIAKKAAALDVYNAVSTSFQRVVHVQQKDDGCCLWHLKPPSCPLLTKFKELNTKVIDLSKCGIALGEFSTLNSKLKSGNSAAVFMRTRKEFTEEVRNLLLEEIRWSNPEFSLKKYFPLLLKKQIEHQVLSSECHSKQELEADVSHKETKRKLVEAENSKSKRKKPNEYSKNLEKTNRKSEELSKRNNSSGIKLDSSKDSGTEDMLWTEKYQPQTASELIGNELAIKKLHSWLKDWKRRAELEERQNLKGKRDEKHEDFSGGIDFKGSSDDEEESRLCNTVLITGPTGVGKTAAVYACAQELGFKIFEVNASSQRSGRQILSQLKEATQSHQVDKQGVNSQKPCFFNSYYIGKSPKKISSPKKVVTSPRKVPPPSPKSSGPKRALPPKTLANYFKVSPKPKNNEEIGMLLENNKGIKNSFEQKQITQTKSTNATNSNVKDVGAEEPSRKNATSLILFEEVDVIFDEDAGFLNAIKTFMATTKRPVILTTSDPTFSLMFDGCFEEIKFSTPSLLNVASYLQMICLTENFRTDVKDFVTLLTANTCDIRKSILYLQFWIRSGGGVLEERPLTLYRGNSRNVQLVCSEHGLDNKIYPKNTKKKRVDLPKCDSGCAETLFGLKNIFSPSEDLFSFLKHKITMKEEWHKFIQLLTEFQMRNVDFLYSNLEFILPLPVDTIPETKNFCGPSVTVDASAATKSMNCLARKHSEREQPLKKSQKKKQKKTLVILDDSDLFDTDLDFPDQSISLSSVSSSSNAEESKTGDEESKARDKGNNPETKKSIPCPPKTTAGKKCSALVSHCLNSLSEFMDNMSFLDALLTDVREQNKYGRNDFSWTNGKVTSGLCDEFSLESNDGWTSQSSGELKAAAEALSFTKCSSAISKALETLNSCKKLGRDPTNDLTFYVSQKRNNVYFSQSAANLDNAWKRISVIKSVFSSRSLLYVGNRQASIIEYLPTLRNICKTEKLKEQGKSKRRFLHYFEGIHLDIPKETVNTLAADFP
UniProt P34981: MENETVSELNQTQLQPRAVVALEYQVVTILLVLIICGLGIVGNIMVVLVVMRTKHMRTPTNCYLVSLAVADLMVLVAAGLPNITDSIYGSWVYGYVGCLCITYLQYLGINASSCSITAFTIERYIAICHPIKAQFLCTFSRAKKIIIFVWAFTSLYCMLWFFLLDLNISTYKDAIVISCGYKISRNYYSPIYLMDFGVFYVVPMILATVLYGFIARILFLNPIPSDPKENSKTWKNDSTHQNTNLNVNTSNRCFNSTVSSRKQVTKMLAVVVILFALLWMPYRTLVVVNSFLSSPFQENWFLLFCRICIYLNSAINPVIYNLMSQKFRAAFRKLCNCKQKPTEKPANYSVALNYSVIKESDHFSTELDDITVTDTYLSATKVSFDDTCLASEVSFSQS
UniProt Q13526, whole entry, looked up: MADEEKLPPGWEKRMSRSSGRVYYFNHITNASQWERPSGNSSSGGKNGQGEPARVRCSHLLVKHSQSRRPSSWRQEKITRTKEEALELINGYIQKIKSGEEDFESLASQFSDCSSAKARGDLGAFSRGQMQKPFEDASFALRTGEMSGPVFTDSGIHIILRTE

Key:
[1] = Validation of Assay for Modulators of Lamin A Splicing (AID 1459; active means well fitted curve in the direction sought with a large enough effect in the signal ratio; the % refers to the signal ratio;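 further: cells exposed to compound for two days before reading; 0% is about no effect; ratio rise marks activators and ratio drop marks inhibitors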); conditions: Lamin A splicing dual RFP/GFP fluorescence reporter; at 9.22 µM (top of the series)
Procedure, shortened: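 Splicing correction read as GFP (500-530 nm) over DsRed2 (575-640 nm) object intensity after 48 h compound exposure of reporter HeLa S3 clones (600 cells/well, 2% FBS medium); ancitabine and cycloheximide titrations, 0.5% DMSO as vehicle.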

[2] = Counterscreen for APE1 Inhibitors: Fluorescent Dye Displacement Validation Assay (AID 1707); conditions: fluorescent dye displacement from DNA; at 57.1 µM (top of the series);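 further: plate controls were ThO with dsDNA and no compound for no effect and ThO without dsDNA for full effect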
Procedure, shortened: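 ThO 250 nM + dsDNA 50 nM (THF abasic site, 5'-TAMRA), Tris-HCl pH7.5/50mM NaCl/2 mM MgCl2/0.01% Tween-20; compounds pin-transferred; ex 480/em 540 nm endpoint. Neutral = no compound; no-DNA ThO wells = negative control.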

[3] = biological target: Ferritin light chain (Equus caballus) (UniProt P02791); test: qHTS Validation Assay for Identification of Novel General Anesthetics (AID 2323); conditions: horse apoferritin, anesthetic-site fluorescent probe displacement; at 76.9 µM (top of the series); further: on the % scale 0 is the no-effect control and ±100 the full control effect
Procedure, shortened: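 Competitive displacement of the profluorescent anesthetic 1-AMA (50% saturated, PBS) from 10 uM apoferritin, 10 min, room temperature. Activity is normalized 380/535 nm fluorescence; concentration-response fitted with a four-parameter Hill equation.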

[4] = biological target: ATP-dependent DNA helicase Q1 (Homo sapiens) (UniProt P46063); test: qHTS Validation Assay for Inhibitors of RecQ-Like Dna Helicase 1 (RECQ1) (AID 2353); conditions: recombinant RECQ1 helicase DNA unwinding assay; at 25.6 µM (top of the series);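 further: plate controls were DMSO vehicle for no effect and enzyme-free control for full effect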
Procedure, shortened: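 50 nM RECQ1T1 preincubated 15 min with compound in Tris pH 8.0 buffer with MgCl2, DTT, Tween-20 and 2.5 ug/ml poly(dI-dC); started with 200 nM TAMRA/BHQ-2 forked duplex and 2 mM ATP. Unwinding read as fluorescence (525/598 nm), two reads 2 h apart.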

[5] = Cytometric Cell-Based qHTS for Inhibitors of the mTORC1 Signaling Pathway in MEF (Tsc2-/-, p53-/-) Cells (AID 2660); conditions: mTORC1 pathway cytometry; at 38.3 µM (top of the series);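 further: Tsc2 and p53 null MEFs carrying empty vector with compound for 24 h; percent of cells above a phospho-rpS6 to PI ratio cutoff in each well; plate controls were DMSO for no effect and rapamycin for full effect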
Procedure, shortened: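 Percent of cells positive for normalized phospho-S6 staining is reported, with the cutoff set from rapamycin (7.5 nM) versus DMSO wells. Tsc2-/-, p53-/- MEFs received compound for 24 hrs.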

[6] = High Content Imaging Cell-Based qHTS for Inhibitors of the mTORC1 Signaling Pathway in MEF (Tsc2-/-, p53-/-) Cells (AID 2666); conditions: at 38.3 µM (top of the series);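 further: percent of cells scored positive for phospho-rpS6 Ser235/236 immunostaining by imaging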
Procedure, shortened: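 Cells were plated, dosed with compound after 24 hrs, and incubated another 24 hrs at 37 degree Celsius. Fixed cells were immunostained for phospho-rpS6 Ser235/236 and counterstained, and the normalized signal was scored as % active cells against rapamycin and DMSO controls.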

[7] = High Content Imaging Cell-Based qHTS for Inhibitors of the mTORC1 Signaling Pathway in MEF Cells (AID 2667); conditions: at 38.3 µM (top of the series);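 further: Tsc2-/- p53-/- MEFs stably re-expressing wild-type Tsc2 exposed 24 h; plate controls were DMSO wells for no effect and rapamycin control wells for full effect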
Procedure, shortened: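 Immunofluorescence for rpS6 phosphorylation in MEFs of Tsc2-/-, p53-/- background rescued with WT Tsc2. Compound exposure lasted 24 hrs. Inhibition was scored against rapamycin-treated control wells.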

[8] = Cytometry Cell-Based qHTS for Inhibitors of the mTORC1 Signaling Pathway in MEF cells (AID 2668); conditions: mTORC1 pathway readout; at 38.3 µM (top of the series);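 further: Tsc2-/- p53-/- mouse embryonic fibroblasts stably re-expressing wild-type Tsc2; percent cells positive for phospho-rpS6 Ser235/236 relative to propidium iodide stain; plate controls were DMSO wells for no effect and 7.5 nM rapamycin control wells for full effect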
Procedure, shortened: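 Phospho-rpS6 (Ser235/236) immunofluorescence over PI signal, scored as % positive cells using thresholds from 7.5 nM rapamycin and DMSO wells, after 24 h compound exposure of WT-Tsc2-rescued Tsc2-/-, p53-/- MEFs. PI cell count recorded for viability.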

[9] = Validation screen for small molecules that induce DNA re-replication in MCF 10A normal breast cells (AID 463097); conditions: MCF 10A cells, DNA re-replication phenotype imaging; at 46.1 µM (top of the series); further: 0% is about no effect; nearly all actives have a fitted effect of over 60% in size
Procedure, shortened: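 Read-out is Hoechst total nuclear intensity by fluorescence scanning imager, flagging increased high-DNA-content nuclei. Compounds were incubated with MCF 10A cells for 48 hr (37 C, 5% CO2) before 40 min staining.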

[10] = biological target: Ubiquitin carboxyl-terminal hydrolase 2 (Homo sapiens) (UniProt O75604); test: qHTS Validation Assay for Inhibitors of Ubiquitin-specific Protease USP2a Using CHOP2 as the Reporter (AID 463106); conditions: USP2a cleavage of CHOP2 reporter, enzymatic; at 38.3 µM (top of the series);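 further: plate controls were DMSO for no effect and full inhibition by NEM for full effect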
Procedure, shortened: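 10nM USP2 core + cpd, 30min RT; add 25nM Ub-CHOP2/25nM substrate; 60min RT; FI 485/531nm. Buffer Tris pH 8.0, CaCl2, BME, CHAPS. Norm. to NEM = 100% inhibition; time-zero read flags fluorescent artifacts.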

[11] = qHTS Validation Assay to Find Inhibitors of Chronic Active B-Cell Receptor Signaling (AID 485345; active means well fitted curve in the direction sought with a large enough effect in the main read-out, with a control signal flat, not every such curve was filed as active;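 further: 0% = untreated basal cells and 100% = 10 µM MG-132 proteasome inhibitor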); conditions: ABC-DLBCL cells, chronic BCR signaling reporter, CBG luciferase; at 46.1 µM (top of the series)
Procedure, shortened: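 Read-out: ratio of filter-corrected green (IkappaBalpha fusion) to red (native) luciferase signal in doxycycline-induced TMD8 cells after 4 h at 37C. Titration spanned 46 uM–3 nM; Data were normalised to basal cells and 10 uM MG-132 wells.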

[12] = biological target: Beta-2 adrenergic receptor (Homo sapiens) (UniProt P07550); test: qHTS validation assay of beta-arrestin-biased ligands of beta2-adrenergic receptor (AID 485366); conditions: cell-based beta-arrestin recruitment to ADRB2, qHTS; at 46.1 µM (top of the series); further: 0% is about no effect
Procedure, shortened: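 Luminescence from a tTA-responsive luciferase, induced when recombinant beta-arrestin is recruited to recombinant beta2-AR, served as the agonism signal. Cells were exposed to compound for 18 hr at 37 degrees C; titrations spanned up to 46 microM.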

[13] = biological target: Thioredoxin reductase 1, cytoplasmic (Rattus norvegicus) (UniProt O89049); test: qHTS Assay for Substrates of Mammalian Selenoprotein Thioredoxin Reductase 1 (TrxR1) (AID 488772); conditions: purified TrxR1, NADPH consumption substrate assay; at 57.1 µM (top of the series);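 further: NADPH fluorescence in the first read after selenite addition and not the 8 min delta; 0% is about no effect; a drop in NADPH fluorescence below the no-compound background marks a TrxR1 substrate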
Procedure, shortened: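 Quantitative HTS in Tris-HCl buffer at pH 7.5 with EDTA and Tween-20, using rat TrxR1, 400 uM NADPH and 400 uM selenite (final). A fall in initial NADPH fluorescence relative to background marked substrate behaviour.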

[14] = biological target: Thioredoxin reductase 1, cytoplasmic (Rattus norvegicus) (UniProt O89049); test: qHTS Assay for Inhibitors of Mammalian Selenoprotein Thioredoxin Reductase 1 (TrxR1) (AID 488773); conditions: purified TrxR1 enzyme activity; at 57.1 µM (top of the series);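 further: drop in NADPH fluorescence over an 8 min run after selenite addition; on the % scale 0 is the no-effect control and ±100 the full control effect; nearly all actives have a fitted effect of over 40% in size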
Procedure, shortened: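 Steps: enzyme (90 nM) plus NADPH (400 uM final), 5 min at ~22 deg C; compound added, 15 min; selenite (400 uM final) added; fluorescence followed for 8 min. Concentration-response curves derived from the normalized delta values.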

[15] = biological target: Flap endonuclease 1 (Homo sapiens) (UniProt P39748); test: qHTS Validation Assay for the Inhibitors of Human Flap endonuclease 1 (FEN1) (AID 488816); conditions: FEN1 nuclease activity, fluorogenic DNA substrate; at 57.1 µM (top of the series); further: on the % scale 0 is the no-effect control and ±100 the full control effect
Procedure, shortened: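 Readings taken at 0 and 15 min after starting the reaction with 50 nM (final) substrate supplied the signal. Compounds had first sat with 10 nM FEN1 reagent for 15 min at room temperature. Values come from Hill-equation concentration-response fits.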

[16] = biological target: Chromobox protein homolog 1 (Homo sapiens) (UniProt P83916); test: qHTS Validation Assay for Inhibitors of HP1-beta Chromodomain Interactions with Methylated Histone Tails (AID 488953); conditions: HP1-beta chromodomain / methylated histone peptide binding assay; at 114 µM (top of the series);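 further: loss of AlphaScreen luminescence from HP1-beta binding biotinylated H3K9me3 peptide; on the % scale 0 is the no-effect control and ±100 the full control effect; nearly all actives have a fitted effect of over 50% in size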
[17] = biological target: Methanococcus maripaludis chaperonin (MmCpn) (UniProt Q6LX38); test: High-Throughput Screening for Modulators of Cytosolic Chaperonin Activity: MmCpn Primary Screen (AID 488978); conditions: MmCpn chaperonin refolding activity, biochemical qHTS; at 76.9 µM (top of the series);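 further: 50 nM MmCpn enzyme hydrolysing 30 µM ATP at 37 °C; 0% is about no effect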
Procedure, shortened: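 ATPase activity of 50 nM MmCpn was assayed with 30 uM ATP, 10 minutes at 37C, after a 5 min compound preincubation at room temperature. ADP production was read as HTRF emission at 590 and 665 nm.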

[18] = biological target: D(1A) dopamine receptor (Homo sapiens) (UniProt P21728); test: HTS Assay for Allosteric Agonists of the Human D1 Dopamine Receptor: Primary Screen for Agonists (AID 488981); conditions: D1 receptor-expressing cells, agonist cAMP readout; at 41.8 µM (top of the series); further: 0% is about no effect
Procedure, shortened: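 Calcium flux in an inducible, force-coupled HEK293 Trex D1 line (overnight at 30 C): agonist mode is the 180 s kinetic read after compound; potentiator mode is the following 180 s read after dopamine at EC20.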

[19] = biological target: D(1A) dopamine receptor (Homo sapiens) (UniProt P21728); test: HTS Assay for Allosteric Agonists of the Human D1 Dopamine Receptor: Primary Screen for Potentiators (AID 488982); conditions: D1 receptor cells, potentiator mode, cAMP signal; at 8.37 µM (top of the series); further: 0% is about no effect
[20] = biological target: D(1A) dopamine receptor (Homo sapiens) (UniProt P21728); test: HTS Assay for Allosteric Agonists of the Human D1 Dopamine Receptor: Primary Screen for Antagonists (AID 488983); conditions: D1 receptor cell assay, antagonist mode, qHTS titration; at 41.8 µM (top of the series);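 further: calcium flux response to an EC80 dopamine challenge measured with no-wash dye; on the % scale 0 is the no-effect control and ±100 the full control effect; nearly all actives have a fitted effect of over 65% in size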
[21] = Validation screen for small molecules that induce genotoxicity in human embryonic kidney (HEK293T) cells expressing luciferase-tagged ELG1 (AID 493106); conditions: luminescence; at 46.1 µM (top of the series); further: 0% is about no effect
Procedure, shortened: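 Reporter-gene quantitative HTS in HEK293T cells carrying luciferase-tagged ELG1, whose level climbs under genotoxic stress. Compound exposure lasts 16 hr at 37 °C before luciferase detection.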

[22] = biological target: ATPase family AAA domain-containing protein 5 (Homo sapiens) (UniProt Q96QE3); test: Validation screen for small molecules that inhibit ELG1-dependent DNA repair in human embryonic kidney (HEK293T) cells expressing luciferase-tagged ELG1 (AID 493107); conditions: HEK293T ELG1-luciferase level, luminescence, 5-fluorouridine co-treatment, 16 h; at 46.1 µM (top of the series);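 further: cells co-treated with the DNA-damaging agent 5-fluorouridine alongside compound; on the % scale 0 is the no-effect control and ±100 the full control effect; inhibitors lower the ELG1-luciferase luminescence signal; nearly all actives have a fitted effect of over 70% in size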
Procedure, shortened: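 Quantitative HTS in HEK293T cells carrying luciferase-tagged ELG1, stimulated with 5-fluorouridine alongside compound for 16 hr. Loss of luciferase signal marks inhibition of ELG1 response.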

[23] = biological target: Thyrotropin-releasing hormone receptor (Homo sapiens) (UniProt P34981); test: qHTS for Small Molecule Agonists and Allosteric Enhancers of Human TRH Receptor: Validation Screen for Agonists (AID 493127;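 active means calcium activation more than 3 SD above the typical response in the agonist read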;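 further: intracellular calcium rise by fluo-8 fluorescence before TRH EC20 addition; 0% is about no effect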); conditions: TRH receptor agonist cell assay; at 2 µM; hits give high values
Procedure, shortened: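 Gq-coupled calcium mobilization in TRHR cells after compound addition, monitored kinetically with fluo-8 dye on an FDSS reader.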

[24] = Nrf2 qHTS screen for inhibitors: Validation (AID 493153; active means well fitted inhibition curve with a large enough effect in the main read-out, with a control signal flat, not every such curve was filed as active;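 further: A549 cells with ARE-driven firefly luciferase reporter reporting Nrf2 activity; % of control where 0% means no effect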); conditions: A549 ARE-Fluc reporter, luciferase luminescence, 18-24 h; at 46.1 µM (top of the series)
[25] = qHTS for Inhibitors of Cell Surface uPA Generation: Validation Assay (AID 493164); conditions: mouse cells, plasminogen activation; at 38.3 µM (top of the series);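 further: RAW 264.7 macrophage cells exposed to compound for 18 h; 0% is about no effect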
Procedure, shortened: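 RAW 264.7, 4000 cells/well, o/n plating; cpd 7-pt 1:5 dilution 2.45 nM–38.3 uM final; 18 h, 37 C/5% CO2; ATP-Lite, 5 s luminescence exposure.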

[26] = Validation screen for small molecules that induce DNA re-replication in SW480 colon adenocarcinoma cells (AID 504364); conditions: DNA re-replication phenotype (high-content imaging); at 46.1 µM (top of the series); further: 0% is about no effect
Procedure, shortened: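 Cells are treated 48 hr with test compound, stained 40 min with Hoechst at 37 C, and scanned for nuclear fluorescence; compounds inducing re-replication increase nuclei with elevated intensity.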

[27] = biological target: Peptidyl-prolyl cis-trans isomerase NIMA-interacting 1 (Homo sapiens) (UniProt Q13526); test: qHTS Validation Assay to Find Inhibitors of Pin1 (AID 504536; active means well fitted inhibition curve with a large enough effect in the polarisation, with a control signal flat, not every such curve was filed as active; the % refers to the polarisation;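 further: 0% = full Pin1 enzyme wells and -100% = no-enzyme wells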); conditions: Pin1 fluorescence polarization peptide binding assay; at 57.5 µM (top of the series)
Procedure, shortened: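 Fluorescence polarization competition: compounds (titration) displace HiFluor-488-labeled Pin1-1b peptide from Pin1 (0.3 uM final) in pH 7.5 HEPES buffer with DTT, 10 min at room temperature; %Activity normalized to no-enzyme wells, curves fitted.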

[28] = Inducers of the Endoplasmic Reticulum Stress Response (ERSR) in human glioma: Validation (AID 504836); conditions: human glioma cells, ER stress response reporter; at 38.3 µM (top of the series); further: 0% is about no effect
Procedure, shortened: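 ERSR induction read as luciferase luminescence (Bright-Glo, 10 min at room temperature) in stably transfected human U87-MG glioma cells exposed to compounds for 16 h, using GRP78 as sensor.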

CN(C(=O)Cc1ccc(Cl)c(Cl)c1)[C@@H]1CCCC[C@@H]1N1CCCC1
inactive: ratio change, both ways [1] -8.08% | activity change, negative = inhibition [2] 0.312% | activity change, negative = inhibition [3] -10.6% | activity change, negative = inhibition [4] -1.8% | activity change, negative = inhibition [5] 8.37% | outcome [6] | activity change, negative = inhibition [7] -100% | activity change, negative = inhibition [8] -9.51% | re-replication induction [9] 2.41% | activity, negative = inhibition [10] 0.766% | activity change [11] -25.4% | activation [12] -0.386% | activity change, negative = NADPH consumption [13] -6.49% | activity change, negative = inhibition [14] -7.91% | activity, negative = inhibition [15] -11.2% | activity change, negative = inhibition [16] -9.55% | activity change, negative = inhibition [17] -0.0649% | activation [18] 9.84% | activity, positive = potentiation [19] 5.1% | activity change, negative = inhibition [20] 7.41% | activity change, positive = ELG1 induction [21] -7.43% | activity change, negative = decrease [22] -0.181% | activation [23] 1.81% | activity change, negative = inhibition [24] -12.1% | activity change [25] -0.837% | activity (re-replication induction) [26] 13.6% | activity, negative = inhibition [27] 43.2% | activation [28] 0.0322%
